Experimental data: patent US6562606B1, “Methods and compositions for disrupting the epithelial barrier function” (The Regents of the University of California, priority 1993, dated 2003)
Where two headings read alike, the source gives them in different places.

Details: for Plasma Conc. (% dose/ml plasma) / Total Body Conc. (%): lidocaine
[1] = solitary enhancer Conc 0.15 %, intact skin
[2] = solitary enhancer Conc 0.2 %, acetone-treated (prepermeabilized) skin

Bromophenacylbromide
Plasma Conc. (% dose/ml plasma) [1]: 0.19 ± 0.10 % dose/ml plasma | Total Body Conc. (%) [1]: 14.73 ± 5.86% | Plasma Conc. (% dose/ml plasma) [2]: 0.84 ± 0.07 % dose/ml plasma | Total Body Conc. (%) [2]: 39.42 ± 11.09% | lidocaine delivery, increase vs vehicle in words (solitary agent on intact skin): nearly significantly increased lidocaine delivery | lidocaine delivery, increase vs vehicle in words (statistical significance vs vehicle, concentrations and skin treatment as in Tables 2-7): very significant increases of both lidocaine delivery and water permeability
